{
  "source": "paper PMC9186491",
  "about": "“Novel Small Molecule Tyrosine Kinase 2 Pseudokinase Ligands Block Cytokine-Induced TYK2-Mediated Signaling Pathways” (Frontiers in Immunology, 2022)",
  "origin": "cited, not measured here",
  "tested_on": "moderate to severe psoriasis patients",
  "set-up": "method as in PMID 30205746",
  "settings": "phase II, 267 patients, placebo group 51%; cited from earlier work",
  "data": [
    {"substance": "Deucravacitinib", "values": [
      {"measurement": "Most common adverse events in treated patients", "value": "55-80%"}
    ]}
  ]
}
